Measured values: patent US8492329B2, “Bioactive peptides and methods of using same” (Compugen Ltd., priority 2007, dated 2013)

How the values were obtained:
[1] = target: T1, LGR4 (Homo sapiens, UniProt Q9BXB1); test: cAMP accumulation in CHO-K1 cells transiently transfected with LGR4; type: cell-based; details: 1 uM, pre-treatment with Forskolin, FIG. 3C
T1 construct: expressed in transfected cells; host or cells: CHO-K1 (transient)
Protocol: [The procedure below names another target; the source says it served here with some conditions changed.] (§1) LGR7 (RXFP1) or LGR8 (RXFP2) were transiently transfected into CHO-K1 cells as follows: Cells (12 million) were plated into T75 flasks on the day preceding transfection. Cells were transfected with a GPCR DNA and Gα16 using a lipid technique according to the manufacturer's recommendation. Cells were transfected for 5 hours, then re-plated into 96-well dishes (60,000 cells per well) and grown overnight. Transfected cells were plated into 24 wells of a 96-well plate. Cells were pre-treated with 0.5 mM IBMX (stimulation buffer) for 10 min at 37° C., then stimulated with either a positive control (Relaxin 2) or a candidate peptide (for Gs functional examination), followed by stimulation or a preincubation with 10 μM forskolin (for Gi functional examination). […]
(§2) The ability of Peptides to affect cAMP concentration was examined in CHO-K1 cells transiently transfected the GPCR's LGR4, LGR5, or LGR6 and treated with 1 uM of P59C13V (P59) (SEQ ID NO: 6), P74C13V (P74) ((SEQ ID NO: 10), or HCG (ACS) which was used as a positive control. cAMP accumulation in the cells was then measured as described above with (Gi) or without (Gs) pre-treatment with Forskolin.

[2] = target: T2, LGR5 (Homo sapiens, UniProt O75473); test: cAMP accumulation in CHO-K1 cells transiently transfected with LGR5; type: cell-based; details: 1 uM, pre-treatment with Forskolin, FIG. 3B
T2 construct: expressed in transfected cells; host or cells: CHO-K1 (transient)
T2 sequence (O75473 22-907): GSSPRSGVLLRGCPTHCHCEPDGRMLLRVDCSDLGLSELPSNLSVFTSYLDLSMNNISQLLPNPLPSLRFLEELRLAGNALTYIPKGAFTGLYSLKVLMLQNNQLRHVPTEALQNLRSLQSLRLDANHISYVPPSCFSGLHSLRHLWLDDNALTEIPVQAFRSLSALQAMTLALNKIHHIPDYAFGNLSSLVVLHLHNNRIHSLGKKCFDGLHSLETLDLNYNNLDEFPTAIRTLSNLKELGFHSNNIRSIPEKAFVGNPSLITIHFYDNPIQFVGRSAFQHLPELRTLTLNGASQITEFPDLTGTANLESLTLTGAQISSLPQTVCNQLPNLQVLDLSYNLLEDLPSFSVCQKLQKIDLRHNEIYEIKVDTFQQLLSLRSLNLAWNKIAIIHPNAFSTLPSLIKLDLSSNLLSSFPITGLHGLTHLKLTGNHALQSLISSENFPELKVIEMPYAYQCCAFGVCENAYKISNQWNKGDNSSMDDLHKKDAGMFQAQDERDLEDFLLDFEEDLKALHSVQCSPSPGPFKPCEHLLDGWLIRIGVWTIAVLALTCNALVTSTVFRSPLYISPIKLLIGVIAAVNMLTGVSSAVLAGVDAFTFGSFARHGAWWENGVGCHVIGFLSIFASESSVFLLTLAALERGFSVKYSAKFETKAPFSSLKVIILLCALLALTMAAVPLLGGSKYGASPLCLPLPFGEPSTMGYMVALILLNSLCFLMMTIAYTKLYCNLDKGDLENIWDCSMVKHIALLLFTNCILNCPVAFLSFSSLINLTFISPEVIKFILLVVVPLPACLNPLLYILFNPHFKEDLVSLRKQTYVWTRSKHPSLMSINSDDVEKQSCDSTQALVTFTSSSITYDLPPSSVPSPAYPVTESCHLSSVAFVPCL
Protocol: [The procedure below names another target; the source says it served here with some conditions changed.] as §1, §2

HCG: HCG (ACS) which was used as a positive control [reference compound]
Gi effect (decrease in cAMP accumulation) [1]: slight but significant Gi activation | Gi effect (decrease in cAMP accumulation) [2]: No significant Gi activation
